Assays:
hA3AR [1] = biological target: T1, hA3AR (Homo sapiens, UniProt P0DMS8); assay: FCM saturation binding of fluorescent ligand to whole CHO cells expressing hA3AR
A3AR in HL-60 cells = A3AR in HL-60 cells (Homo sapiens, UniProt P0DMS8); assay: FCM binding in HL-60 cells; settings: 300 nM, 1 h, in presence of 100 nM XAC; displacement by 1 µM MRS1523
hA3AR [2] = biological target: T1, hA3AR; assay: FCM kinetics; format: cell-based; settings: 30 nM

Sequences of proteins named here, by UniProt entry; tags and fusion partners are left off.
UniProt P0DMS8, whole entry: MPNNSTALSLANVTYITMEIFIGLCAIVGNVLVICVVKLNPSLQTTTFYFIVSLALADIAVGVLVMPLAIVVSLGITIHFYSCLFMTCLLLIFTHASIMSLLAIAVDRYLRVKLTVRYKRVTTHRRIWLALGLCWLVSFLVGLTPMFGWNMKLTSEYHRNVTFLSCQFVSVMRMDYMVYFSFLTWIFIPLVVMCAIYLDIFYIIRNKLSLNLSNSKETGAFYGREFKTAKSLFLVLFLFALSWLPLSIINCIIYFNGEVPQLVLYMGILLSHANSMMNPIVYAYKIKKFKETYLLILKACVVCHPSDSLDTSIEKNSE

(1′S,2′R,3′S,4′S,5′S)-4′-[6-(3-chlorobenzylamino)-2-(N-cyanine(β-aminoethylaminocarbonyl)-1-butynyl)-9-yl]-2′,3′-dihydroxybicyclo[3.1.0]hexane-1′-carboxylic acid N-methylamide [Compound 1]
Bmax (maximal fluorescent intensity) (hA3AR [1]; 37 °C incubation in sucrose-free media): 245,974 MESF
nonspecific binding (hA3AR [1]; co-administration of MRS1220 or NECA): too low to quantify
Bmax (maximal fluorescent intensity) (hA3AR [1]; incubation for one hour at 4 °C): 58,655 MESF
Bmax (maximal fluorescent intensity) (hA3AR [1]; treatment with sucrose): 192,689 MESF
specific binding to HL-60 cells (A3AR in HL-60 cells): specific binding of MRS5218 to HL-60 cells was detected
t1/2 of dissociation (hA3AR [2]; 0.4 M sucrose, 37 °C, initiated at 60 min by 10 µM MRS1220): 21.4 min
observed association rate constant (K) (hA3AR [2]; absence of sucrose at 37°C): 0.039 min⁻¹
observed association rate constant (K) (hA3AR [2]; incubation at 4°C): 0.013 min⁻¹
fraction of fluorescent label internalized at plateau (hA3AR [2]; plateau after 45 min): roughly 50%
observed association rate constant (K) (hA3AR [2]; presence of sucrose at 37°C): 0.026 min⁻¹
t1/2 of association (hA3AR [2]; sucrose-containing media (0.4 M), 37 °C): 26.4 min
